Assay results: patent publication US12059472B2 (Bayer Aktiengesellschaft, priority 2016, dated 2024)

Tested on: Caco-2 cells
Experiment: Caco-2 flux assay for cell permeability
Format: in vitro ADME
Conditions: Caco-2, basal to apical, 2 hours
Method: The cell permeability of a substance can be investigated by means of in vitro testing in a flux assay using Caco-2 cells [M. D. Troutman and D. R. Thakker, Pharm. […] For this purpose, the cells were cultured for 15-16 days on 24-well filter plates. For the determination of permeation, the respective test substance was applied in a HEPES buffer to the cells either apically (A) or basally (B) and incubated for 2 hours. After 0 hours and after 2 hours, samples were taken from the cis and trans compartments. The samples were separated by HPLC (Agilent 1200, Böblingen, Germany) using reverse phase columns. The HPLC system was coupled via a Turbo Ion Spray Interface to a Triple Quadropol mass spectrometer API 4000 (AB SCIEX Deutschland GmbH, Darmstadt, Germany).
Of critical importance for toxophors which are released intracellularly is the permeability from B to A [Papp (B-A)] and the ratio of Papp (B-A) to Papp (A-B) (efflux ratio): the lower this permeability, the slower the active and passive transport processes of the substance through the monolayer of Caco-2 cells.

## CC(C)(C)[C@H](c1cc(-c2cc(F)ccc2F)cn1Cc1ccccc1)N(CCCN)C(=O)CO [Example M4, N-(3-Aminopropyl)-N-{(1R)-1-[1-benzyl-4-(2,5-difluorophenyl)-1H-pyrrol-2-yl]-2,2-dimethylpropyl}-2-hydroxyacetamide]
  Papp (B-A): 21.3 ×10⁻⁶ cm/s
